Organism: Homo sapiens
Test: Inhibition of full length His-tagged HSP90/GST-tagged Cdc37 (unknown origin) interaction at 100 uM after 1 hr by HTRF assay relative to control
In short: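 HTRF assay using His-tagged full-length Hsp90 and GST-tagged Cdc37 M, each 250 nM final, in PBS with an extra 400 mM KF, pH 7.4. Compound incubated 1 h at 37 °C. Anti-GST-Cryptate and anti-6His-XL665 then added, 0.5 h at 37 °C. Ex 320 nm; ratio = (665/620 nm) × 10000. No-compound negative control and reagent-only blank.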

**Q.** How did the inhibition turn out when `COc1cc(C(=O)OCCN2C(=O)C3C(N=C(N4CCN(C[C@H](O)CO)CC4)N3C)N(C)C2=O)cc(OC)c1OC` (stereo partly specified) was run?
**A.** Its inhibition is 12.6%.
